Ab-14 heavy chain CDR variants: yeast mating affinities

Data: MIT Lincoln Laboratory AlphaSeq set, Engelhart et al. 2022, doi:10.1038/s41597-022-01779-4, as distributed in FLAb.

Binding partner: SARS-CoV-2 spike HR2 peptide, sequence PDVDLGDISGINAS.

Parent: Ab-14, a human scFv built as VH, the linker GGGGSGGGGSGGGGS, VL. Only the CDRs of the heavy chain vary.
VH: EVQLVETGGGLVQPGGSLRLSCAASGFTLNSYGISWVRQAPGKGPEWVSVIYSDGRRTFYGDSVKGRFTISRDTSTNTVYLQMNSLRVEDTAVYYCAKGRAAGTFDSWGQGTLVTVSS
VL: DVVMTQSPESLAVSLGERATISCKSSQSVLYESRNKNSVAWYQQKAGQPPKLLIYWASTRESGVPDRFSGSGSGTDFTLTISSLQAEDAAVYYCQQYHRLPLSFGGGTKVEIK

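Library AAYL49 holds single substitutions and randomly drawn double and triple substitutions in the CDRs. The assay is AlphaSeq: two haploid yeast populations carry antibody and antigen on their surface. The frequency of each diploid, read from paired DNA barcodes, reflects how well the two displayed proteins bind. Read counts were normalised to the haploid input and turned into Kd by a linear fit to BCL2-family pairs of known affinity, for each replicate. The assay was run in three technical replicates.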

Changes read parent residue, position, new residue, counted from the first residue of the VH shown. Scale: log10 of Kd in nM, estimated from mating counts; low values are strong binders. Where no diploid with the target was found in that replicate, the entry reads "nd": below detection, most likely a poor binder, though not proof of it. Empty control strains, which show no peptide, gave a signal in 15% of pairings with library AAYL49; the median was 4.06 and 95% of these signals were weaker than 2.83. No background was subtracted. For each scFv, signals with the empty controls are counted beside the result. For reference, the parent read 0.65 as the reference entry and 4.11 (one replicate of three) as a member of this library.

With N30P+K65L+G99S the result was 3.04, 3.12, 3.30 (controls 0 of 9).
With S53T+R57P+A102E the result was nd, nd, nd (controls 0 of 9).
With N30W+I51W+R57C the result was nd, nd, 4.58 (controls 1 of 9).
With N30K+F59S+G103N the result was nd, nd, nd (controls 0 of 9).
With N30W+G103M+T104N the result was nd, 4.71, 4.41 (controls 4 of 9).
With S31I+Y52R+T104R the result was nd, 3.13, 2.86 (controls 2 of 9).
With S31G+G55A+S107T the result was nd, 2.99, 3.31 (controls 1 of 9).
With I51F+G55I+G103Q the result was nd, nd, 4.68 (controls 0 of 9).
With G26P+S35M+G103W the result was nd, 4.79, 5.14 (controls 2 of 9).
With G55N+S63R the result was nd, nd, nd (controls 2 of 9).
With G99Q+R100Q+A101H the result was 3.68, nd, nd (controls 3 of 9).
With N30P+G55N+A102K the result was 4.41, nd, nd (controls 4 of 9).
With G55H the result was nd, 4.12, nd (controls 3 of 9).
With R56I+Y60N+G99Y the result was 4.25, 3.12, 4.11 (controls 5 of 9).
With V50P+R56P+V64Y the result was nd, nd, nd (controls 0 of 9).
With S31C+G33C+D62A the result was nd, nd, nd (controls 1 of 9).
With S53H+A102P the result was 1.68, 1.84, 1.62 (controls 3 of 9).
With Y52K+R57H+F59I the result was nd, nd, 3.20 (controls 1 of 9).
With I51L+S53E+D106S the result was nd, nd, nd (controls 2 of 9).
With G26A+L29T+K65S the result was nd, nd, nd (controls 0 of 9).
With G55I+D62V+A102D the result was nd, nd, nd (controls 1 of 9).
With G26Y+F27T+G99L the result was nd, 3.78, nd (controls 0 of 9).
With G33V+I34A+I51W the result was nd, nd, nd (controls 1 of 9).
With I34K+V50F+R100H the result was nd, nd, nd (controls 1 of 9).
With S35P+T104R+F105D the result was nd, 3.40, nd (controls 1 of 9).
With S31K+Y52Q the result was 5.89, nd, 4.87 (controls 4 of 9).
With I51W+F59P the result was nd, nd, nd (controls 1 of 9).
With Y32C+A102M+S107W the result was nd, nd, 4.74 (controls 2 of 9).
With I34W+F59V the result was 0.59, 0.86, 0.71 (controls 0 of 9).
With R56I+G61P+F105D the result was 2.51, 1.70, 2.71 (controls 0 of 9).
With T28M+D54P+F105T the result was nd, nd, nd (controls 0 of 9).
With Y52R+R56T+V64Y the result was 3.38, nd, 4.75 (controls 3 of 9).
With F27M+Y52Q+R56T the result was 4.03, nd, nd (controls 1 of 9).
With Y32Q+G33V+R56W the result was nd, nd, nd (controls 1 of 9).
With G26P+Y52K+G99N the result was nd, nd, nd (controls 0 of 9).
With L29E+V50Y+S63P the result was nd, nd, 4.44 (controls 0 of 9).
With N30Y+R56Y+F59L the result was 3.91, nd, nd (controls 1 of 9).
With S53T+R57V+T104N the result was 4.56, 4.00, 4.50 (controls 8 of 9).
With L29N+S63K+R100S the result was 4.39, 4.53, nd (controls 5 of 9).
With G26S+A101N+A102F the result was nd, nd, nd (controls 2 of 9).
With L29S+R57K+G103E the result was nd, nd, nd (controls 0 of 9).
With G33W+Y60E+F105N the result was nd, nd, nd (controls 3 of 9).
With V50I+Y52E+K65I the result was nd, nd, nd (controls 0 of 9).
With S35N+G61V+T104F the result was 2.68, nd, nd (controls 1 of 9).
With L29T+R56L+D62V the result was nd, nd, nd (controls 0 of 9).
With T28V+S53D+D54L the result was nd, nd, nd (controls 1 of 9).
With F27A+Y60G+K65C the result was nd, 2.57, nd (controls 0 of 9).

Picked from the list: the 5 lowest averages where every replicate gave a value.

changes	log10 Kd, replicates	control signals
I34W+F59V	0.59, 0.86, 0.71	0/9
S53H+A102P	1.68, 1.84, 1.62	3/9
R56I+G61P+F105D	2.51, 1.70, 2.71	0/9
N30P+K65L+G99S	3.04, 3.12, 3.30	0/9
R56I+Y60N+G99Y	4.25, 3.12, 4.11	5/9